Most compounds without a hit are left out; they make up all but 2.5% or so of the library.
rTrxR1 inhibitor – rat TrxR1 inhibition | Potency, µM (doses to about 114 µM), hits mostly inhibitors | 390,000 tested, 1% active | recombinant rTrxR1, NADPH fluorescence consumption, selenite substrate | O89049; also: nearly all actives have a fitted effect of over 65% in size
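Rat TrxR1 (90 nM in the dispensed reagent) was pre-reduced with 400 uM NADPH for 5 min at room temperature, then incubated with compound for 15 min. After 400 uM selenite was added, NADPH fluorescence (Ex 340/Em 450 nm) was followed for 8 min.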
TrxR1 substrate – substrates of rat thioredoxin reductase 1. AID 588456. 390,000 tested, 0.01% active. O89049. purified TrxR1 substrate turnover, NADPH consumption readout. Potency, µM (titrated, usually from 114 µM); also: nearly all actives have a fitted effect of over 50% in size
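Rat TrxR1, dispensed at 90 nM, was prereduced with 400 uM NADPH (final) for 5 min at ~22 deg C, then incubated with compound 15 min before 400 uM selenite. A first-read NADPH fluorescence drop versus no-compound background flagged substrates.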
ClpP mod – qHTS Assay for Activators of ClpP; ATP-dependent Clp protease proteolytic subunit (Bacillus subtilis (strain 168)), P80244; purified B. subtilis ClpP, FRET peptide cleavage, 20 min; Potency, µM (series often up to 57.5 µM); 340,000 tested, 1.9% active; active = well fitted falling curve with a large enough effect; inconclusive = small, poorly fitted or top-dose-only effect; inactive = no such curve, though single readings can be large or run the other way; also: the source files actives as falling curves though it sought activators and does not explain the sign; nearly all actives have a fitted effect of over 65% in size
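ClpP 10 microg/mL final, pH 8 Tris/KCl buffer with BSA, glycerol, Tween-20; compound pinned in; FRET-FV substrate; RT 20 min; Ex320/Em430; ΔFRET vs ADEP 5.8 microM, DMSO, no enzyme.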
miR-21 reporter – raises the signal of a miR-21 reporter; Potency, µM (doses to about 38.3 µM); HeLa miR-21 FLuc reporter, luciferase, 48 h; AID 2288; 340,000 tested, under 10 active; active = well fitted rising curve with a large enough effect; inconclusive = small, poorly fitted or top-dose-only effect; inactive = no such curve, though single readings can be large or run the other way;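 further: miR-21 action dims this reporter so a rising signal means less miR-21 action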
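HeLa miR-21-FLuc reporter line, endogenous miR-21; 2000 cells/well in DMEM/10% FBS; compound titration up to ~40uM final, 48 h, 37 degree Celsius; luciferase detection reagent, 15 min lysis, CCD luminescence.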
Anesthetic bind – binds horse apoferritin like a general anesthetic | apoferritin/1-aminoanthracene competitive binding, fluorescence | Potency, µM (series often up to 77.5 µM), hits mostly inhibitors | 350,000 tested, 0.074% active | AID 485281; also: nearly all actives have a fitted effect of over 20% in size
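Apoferritin-based anesthetic binding model; compound displacement of fluorescent 1-AMA measured as endpoint fluorescence after 10 minutes at room temperature, scaled to free-ligand and complex controls.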
Hits are given with their value; [ ] = another dose, or the depositor's remark. Unless noted, calls follow the shape of the dose curve; as a rule, active = well fitted curve in the direction sought with a large enough effect; inconclusive = small, poorly fitted or top-dose-only effect, or another doubt; inactive = no such curve, though single readings can be large; an effect the other way counts as inactive or inconclusive.

Amino acid sequences for entries named in this document (tags omitted).
ATP-dependent Clp protease proteolytic subunit (Bacillus subtilis (strain 168)), P80244, UniProt P80244, whole entry, looked up: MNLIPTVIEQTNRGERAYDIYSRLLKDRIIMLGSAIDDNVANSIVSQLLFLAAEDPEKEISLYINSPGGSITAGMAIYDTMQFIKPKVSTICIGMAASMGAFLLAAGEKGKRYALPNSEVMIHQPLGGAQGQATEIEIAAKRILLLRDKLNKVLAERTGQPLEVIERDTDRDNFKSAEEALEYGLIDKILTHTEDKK

How did O=C(NC(=S)NNS(=O)(=O)c1ccccc1)c1ccc([N+](=O)[O-])cc1 do in these assays?
rTrxR1 inhibitor: 14µM; TrxR1 substrate: inactive; ClpP mod: inactive; miR-21 reporter: inactive; Anesthetic bind: inactive

What do the screens show for `Cc1ccc(S(=O)(=O)NNC(=O)c2cccnc2)cc1`?
rTrxR1 inhibitor: inactive; TrxR1 substrate: inactive; ClpP mod: inactive; miR-21 reporter: inactive; Anesthetic bind: inactive

Results for COc1ccc(Br)c2c1-c1nc(NC(=O)c3ccc(F)cc3)sc1C2 ?
rTrxR1 inhibitor: inactive; TrxR1 substrate: inactive; ClpP mod: inactive; miR-21 reporter: inactive; Anesthetic bind: inactive

How did COc1ccc2c(c1)c1c(c(=O)n(-c3cc(Cl)ccc3C)c(=O)n1CC(=O)N1CCCC1)n2C do in these assays?
rTrxR1 inhibitor: inactive; TrxR1 substrate: inactive; ClpP mod: inactive; miR-21 reporter: inactive; Anesthetic bind: inactive

How did CC(C)Sc1nc2c(c(=O)[nH]c(=O)n2C)n1CCc1ccccc1 do in these assays?
rTrxR1 inhibitor: inactive; TrxR1 substrate: inactive; ClpP mod: 18µM; miR-21 reporter: inactive; Anesthetic bind: inactive

What do the screens show for `O=C(Cn1c(-c2cccs2)cc2cc(F)ccc21)N1CCN(c2cccc(Cl)c2)CC1`?
rTrxR1 inhibitor: inactive; TrxR1 substrate: inactive; ClpP mod: 28µM; miR-21 reporter: inactive; Anesthetic bind: inactive

How did O=C(Cn1c(=O)[nH]c2ccccc2c1=O)N1CCN(c2cccc(Cl)c2)CC1 do in these assays?
rTrxR1 inhibitor: inactive; TrxR1 substrate: inactive; ClpP mod: 32µM; miR-21 reporter: inactive; Anesthetic bind: inactive

Results for O=C(CCCCCn1c(=O)[nH]c2ccccc2c1=O)N1CCN(c2ccc(Cl)cc2)CC1 ?
rTrxR1 inhibitor: inactive; TrxR1 substrate: inactive; ClpP mod: inconclusive; miR-21 reporter: inconclusive; Anesthetic bind: inactive

What do the screens show for `CN1CCN(C(=O)Cn2c(-c3cccs3)cc3cc(Cl)ccc32)CC1`?
rTrxR1 inhibitor: inactive; TrxR1 substrate: inactive; ClpP mod: 32µM; miR-21 reporter: inactive; Anesthetic bind: inactive

How did CCOc1ccccc1NC(=O)c1cc2cc(C)ccc2n1C do in these assays?
rTrxR1 inhibitor: inactive; TrxR1 substrate: inactive; ClpP mod: inactive; miR-21 reporter: inactive; Anesthetic bind: inactive

How did CCC(c1nnnn1CCOC)N(Cc1cc2cc(C)c(C)cc2[nH]c1=O)CC1CCCO1 (stereo not drawn) do in these assays?
rTrxR1 inhibitor: inactive; TrxR1 substrate: inactive; ClpP mod: inconclusive; miR-21 reporter: inactive; Anesthetic bind: inactive

What do the screens show for `CCC(c1nnnn1CCOC)N(Cc1cc2c(C)cc(C)cc2[nH]c1=O)CC1CCCO1` (stereo not drawn)?
rTrxR1 inhibitor: inconclusive; TrxR1 substrate: inactive; ClpP mod: 28µM; miR-21 reporter: inactive; Anesthetic bind: inactive

What do the screens show for `O=C(Oc1ccc(Cl)c2cccnc12)N1CCCCC1`?
rTrxR1 inhibitor: inactive; TrxR1 substrate: inactive; ClpP mod: inconclusive; miR-21 reporter: inactive; Anesthetic bind: inconclusive

Results for O=C(Oc1ccc(Cl)c2cccnc12)N1CCOCC1 ?
rTrxR1 inhibitor: inactive; TrxR1 substrate: inactive; ClpP mod: 32µM; miR-21 reporter: inactive; Anesthetic bind: inactive

Results for COCCCNC(=O)CC(NS(=O)(=O)c1ccc(OC)cc1)c1ccc(OC)cc1 (stereo not drawn) ?
rTrxR1 inhibitor: inactive; TrxR1 substrate: inactive; ClpP mod: 22µM; miR-21 reporter: inactive; Anesthetic bind: inactive

How did OC(COc1ccccc1)CN1CCCCC1 (stereo not drawn) do in these assays?
rTrxR1 inhibitor: inactive[11.4 µM]; TrxR1 substrate: inactive[11.4 µM]; ClpP mod: 32µM

What do the screens show for `CCOC(=O)Nc1ccc2c(c1)N(C(=O)CCN1CCOCC1)c1ccccc1S2=O` (stereo not drawn)?
rTrxR1 inhibitor: 32µM; TrxR1 substrate: inactive; ClpP mod: inactive; miR-21 reporter: inconclusive; Anesthetic bind: inactive

What do the screens show for `Cc1ccc(OCC(=O)Nc2nonc2-c2ccc(C)c(C)c2)cc1C`?
rTrxR1 inhibitor: inactive; TrxR1 substrate: inactive; ClpP mod: inactive; miR-21 reporter: inactive; Anesthetic bind: inactive

Results for CCOC(=O)c1[nH]c(C)c(CCC(=O)Nc2ccccc2C(=O)OC)c1C ?
rTrxR1 inhibitor: inactive; TrxR1 substrate: inactive; ClpP mod: inactive; miR-21 reporter: inactive; Anesthetic bind: inactive

What do the screens show for `Cc1nc2c(=O)n(C)c(=O)n(C)c2nc1Cl`?
rTrxR1 inhibitor: 2µM; TrxR1 substrate: inactive; ClpP mod: inactive; miR-21 reporter: inconclusive; Anesthetic bind: inactive

How did Cc1ccc(CNc2nnc(C)c3nnn(Cc4ccc(F)cc4)c23)cc1 do in these assays?
rTrxR1 inhibitor: inactive; TrxR1 substrate: inactive; ClpP mod: inactive; miR-21 reporter: inactive; Anesthetic bind: inactive

Results for NC(=O)c1ccc(NC(=O)COC(=O)/C=C/c2ccc(Br)o2)cc1 ?
rTrxR1 inhibitor: 45µM; TrxR1 substrate: inactive; ClpP mod: inactive

Results for Cc1ccc(NC(=O)COC(=O)/C=C/c2ccc(Br)o2)cc1S(=O)(=O)N(C)C ?
rTrxR1 inhibitor: 50µM; TrxR1 substrate: inactive; ClpP mod: inactive; miR-21 reporter: inactive; Anesthetic bind: inconclusive

What do the screens show for `CN(C)S(=O)(=O)c1cccc(NC(=O)COC(=O)/C=C/c2ccc(Br)o2)c1`?
rTrxR1 inhibitor: inconclusive; TrxR1 substrate: inactive; ClpP mod: inactive; miR-21 reporter: inactive; Anesthetic bind: inactive

Results for COc1ccc(-c2sc3ccc(N4CCOCC4)cc3c2C#CC2(O)CCCCC2)cc1 ?
rTrxR1 inhibitor: inactive; TrxR1 substrate: inactive; ClpP mod: 25µM

What do the screens show for `COC(=O)c1[nH]c(C)c(/C(O)=C2\C(=O)C(=O)N(CCCN3CCOCC3)C2c2ccccn2)c1C` (stereo not drawn)?
rTrxR1 inhibitor: 25µM; TrxR1 substrate: inactive; ClpP mod: inactive; miR-21 reporter: inactive; Anesthetic bind: inactive

What do the screens show for `COc1ccc(/C(O)=C2/C(=O)C(=O)N(CCN3CCOCC3)C2c2ccccn2)cc1` (stereo not drawn)?
rTrxR1 inhibitor: 50µM; TrxR1 substrate: inactive; ClpP mod: inactive; miR-21 reporter: inactive; Anesthetic bind: inactive

Results for CCOC(=O)c1[nH]c(C)c(/C(O)=C2\C(=O)C(=O)N(CCCN(CC)CC)C2c2cccnc2)c1C (stereo not drawn) ?
rTrxR1 inhibitor: inactive; TrxR1 substrate: inactive; ClpP mod: inactive

How did CCOC(=O)c1[nH]c(C)c(/C(O)=C2\C(=O)C(=O)N(CCCN3CCOCC3)C2c2cccnc2)c1C (stereo not drawn) do in these assays?
rTrxR1 inhibitor: 45µM; TrxR1 substrate: inactive; ClpP mod: inactive; miR-21 reporter: inactive; Anesthetic bind: inactive

Results for O=C1C(=O)N(CCN2CCOCC2)C(c2ccccn2)/C1=C(/O)c1ccc(F)cc1 (stereo not drawn) ?
rTrxR1 inhibitor: inconclusive; TrxR1 substrate: inactive; ClpP mod: inactive; miR-21 reporter: inactive; Anesthetic bind: inactive

Source: PubChem (National Center for Advancing Translational Sciences (NCATS))
